Reference: patent publication US12377101B2, “Combination therapies” (Mirati Therapeutics, Inc., priority 2018, dated 2025)

Legend:
SW1573 cells = assay: SW1573 tumor bearing mice, single agents and combination; type: in vivo, nude/nude mice; conditions: Compound 478 100 mg/kg, RMC-4550 30 mg/kg
Procedure: (§1) Immunocompromised nude/nude mice are inoculated in the right hind flank with cells or patient derived tumor samples harboring a KRas G12C mutation. When tumor volumes reach between 200-400 mm^3 in size, the mice are divided into four groups of 5-12 mice each. The first group is administered vehicle only. […] The fourth group is administered the single agent dose of the KRas G12C inhibitor in combination with the single agent dose of the SHP-2 inhibitor. […] Tumor volumes are measured using a caliper every two-three days and tumor volumes are calculated by the formula: 0.5×[…].
20 nude/nude mice per study were inoculated in the right hind limb with 5×10^6 SW1573 cells, KYSE410 cells or H358 cells.

H2122 cells = assay: H2122 tumor bearing mice, single agents and combination; type: in vivo, nude/nude mice; conditions: Compound 478 100 mg/kg, RMC-4550 30 mg/kg
Procedure: as §1
Similarly, 25 nude/nude mice were inoculated in the right hind limb with 5×10^6 H2122 cells.

C=C(F)C(=O)N1CCN(c2nc(OC[C@@H]3CCCN3C)nc3c2CCN(c2cccc4cccc(Cl)c24)C3)C[C@@H]1CC#N [Compound 478]
Average Tumor Volume (SW1573 cells; Study Day 11, p.o. daily): 346 mm^3
Average Tumor Volume (SW1573 cells; Study Day 16, p.o. daily): 379 mm^3
Average Tumor Volume (H2122 cells; Study Day 0, p.o. daily, 5 mice): 347 mm^3
Average Tumor Volume (H2122 cells; Study Day 4, p.o. daily): 369 mm^3
Average Tumor Volume (H2122 cells; Study Day 6, p.o. daily): 379 mm^3
Average Tumor Volume (H2122 cells; Study Day 8, p.o. daily): 387 mm^3
Average Tumor Volume (H2122 cells; Study Day 13, p.o. daily): 391 mm^3
Average Tumor Volume (H2122 cells; Study Day 15, p.o. daily): 396 mm^3
Average Tumor Volume (H2122 cells; Study Day 18, p.o. daily): 405 mm^3
Average Tumor Volume (H2122 cells; Study Day 24, p.o. daily): 427 mm^3
Average Tumor Volume (H2122 cells; Study Day 27, p.o. daily): 444 mm^3
Average Tumor Volume (H2122 cells; Study Day 29, p.o. daily): 455 mm^3
